Patent US20080138834A1, “Cellular antagonists of GPCR physiology” (Institute Pasteur Korea, priority 2006, published 2008)

Tested on: endothelin A receptor
Conditions: for IC50: read-out: IC50 on ETAR endocytosis, secondary screen, compound 0.1 to 50 μM; for IC50 / ETAR endocytosis/internalization compared to control: endothelin stimulated

In the case of `CC(=O)c1c(O)c(C)c(O)c(Cc2c(O)c3c(c(C(=O)/C=C/c4ccccc4)c2O)OC(C)(C)C=C3)c1O` [rottlerin], the “effect on agonist dependent ETAR endocytosis (phenotype)” value (from here on “effect”) is reported as “no effect”.
In the case of `Cc1cc(O)c2c(=O)c3c(O)cc(O)c4c5c(O)cc(O)c6c(=O)c7c(O)cc(C)c8c1c2c(c34)c(c78)c65` [hypericine], the “effect” value is reported as “marginal effect”.
Compound `CC[C@H](C)[C@H](NC(=O)[C@H](CC(=O)O)NC(=O)[C@H](CC(C)C)NC(=O)[C@H](Cc1c[nH]cn1)NC(=O)[C@@H]1CSSC[C@H](N)C(=O)N[C@@H](CO)C(=O)N[C@H]2CSSC[C@H](NC(=O)[C@H](CCC(=O)O)NC(=O)[C@H](CCCCN)NC(=O)[C@H](CC(=O)O)NC(=O)[C@H](CCSC)NC(=O)[C@H](CC(C)C)NC(=O)[C@H](CO)NC(=O)[C@H](CO)NC2=O)C(=O)N[C@@H](C(C)C)C(=O)N[C@@H](Cc2ccc(O)cc2)C(=O)N[C@@H](Cc2ccccc2)C(=O)N1)C(=O)N[C@H](C(=O)N[C@@H](Cc1c[nH]c2ccccc12)C(=O)O)[C@@H](C)CC` [endothelin-1] has an EC50 (read-out: EC50 of endothelin-1 for agonist dependent ETAR activation (internalization)) of 3.4 nM.
Compound `O=S(=O)(NCCNC/C=C/c1ccc(Br)cc1)c1cccc2cnccc12` [H-89] has an IC50 of 10000 nM.
For `CCCCCCCCCCCCCCCC(=O)OC(CC(=O)O)C[N+](C)(C)C.[Cl-]` (stereo not drawn) [Palmitoyl DL carnitine chloride], the “ETAR endocytosis/internalization compared to control” value (10 μM compound) was 0.5 fold.
With `CCCCCCCCCCCCCC(=O)O[C@@H]1[C@@H](C)[C@@]2(O)[C@@H](C=C(CO)C[C@]3(O)C(=O)C(C)=C[C@@H]23)[C@@H]2C(C)(C)[C@]12OC(C)=O` [PMA] the “ETAR internalization in the absence of stimulation” value was “no internalization”, the “endothelin stimulated ETAR internalization after 24 h phorbol ester and washout” value was “no longer increased” and the “increase of ET-1 induced ETAR endocytosis” value was > 50%. For the same compound, the “level of the ETAR at the cell surface” value was 2.6 fold.
`CC1CNCCN1S(=O)(=O)c1cccc2cnccc12` (stereo not shown) [H7] was tested, and the “effect” value (10 μM compound, 40 nM endothelin-1) was “no significant effect”.
`CN(C)CCCn1cc(C2=C(c3c[nH]c4ccccc34)C(=O)NC2=O)c2ccccc21` [GF 109203X] was tested, and the “effect” value was “blocked”.
For `Cn1cc(C2=C(c3cn(CCCSC(=N)N)c4ccccc34)C(=O)NC2=O)c2ccccc21` [Ro 31-8220], the “ETAR endocytosis/internalization compared to control” value (10 μM compound) was 0.5 fold and the IC50 was 1000 nM.

Like-named read-outs stand apart in the source and are kept apart here.
